Reference: patent US20050277645A1, “Sleep inducing compounds and methods relating thereto” (Neurocrine Biosciences, Inc., priority 2004, published 2005)

By UniProt entry, the sequences of proteins in these tests, tags left out.
UniProt P35367, whole entry: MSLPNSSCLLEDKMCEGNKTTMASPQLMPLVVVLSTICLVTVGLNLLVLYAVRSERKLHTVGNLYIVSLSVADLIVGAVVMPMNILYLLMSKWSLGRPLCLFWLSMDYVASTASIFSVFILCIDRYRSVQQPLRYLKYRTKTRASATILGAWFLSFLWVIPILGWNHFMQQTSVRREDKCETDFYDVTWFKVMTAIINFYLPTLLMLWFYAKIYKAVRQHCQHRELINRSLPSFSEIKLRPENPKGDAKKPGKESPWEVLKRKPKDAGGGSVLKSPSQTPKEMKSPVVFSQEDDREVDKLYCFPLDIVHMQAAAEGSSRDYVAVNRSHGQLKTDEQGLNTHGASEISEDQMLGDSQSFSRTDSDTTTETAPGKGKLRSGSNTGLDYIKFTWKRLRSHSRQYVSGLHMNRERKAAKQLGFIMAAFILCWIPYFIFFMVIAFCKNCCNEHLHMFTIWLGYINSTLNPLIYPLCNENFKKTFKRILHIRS

Target: T1, human H1 receptor (Homo sapiens, UniProt P35367)
T1 construct: expressed in transfected cells; host or cells: CHO cells (crude membranes)
Test: Human histamine H1 receptor binding assay
Method: Compounds of the present invention may be evaluated for binding to the histamine H1 receptor by a standard binding assay. […] Non-specific binding is determined in the presence of excess (1 μM) doxepin. Bound and free ligand are separated by rapid vacuum filtration using a Packard 96-well cell harvester onto UniFilter GF/C filter plates (PerkinElmer) that has been pretreated with 1% polyethyleneimine. The filter plates are then washed with 600 μl phosphate buffered saline containing 0.01% (v/v) Triton-X100. Bound radioligand is determined by scintillation counting using a TopCount-NXT (Packard). Binding data is analyzed by nonlinear, least-squares curve fitting algorithms using GraphPad Prism (GraphPad Software, Inc. San Diego, Calif.) or ActivityBase (IDBS, Guildford, Surrey, UK).

## COc1ccc2c(c1)CC(CCN(C)C)=C2C(C)c1nc(C)cs1 (stereo not shown) [22-4]
  Ki: ≤ 250 nM
